Experiments:
[1] = tested on: yellow fever mosquito (Aedes aegypti) larvae; experiment: Insecticidal test for mosquito, submerge test; format: in vivo; conditions: 72 h
[2] = tested on: beet armyworm (Spodoptera exigua); experiment: Insecticidal test for beet armyworm in injection assays; conditions: 4th instar, 1 h observation
[3] = tested on: sweet potato whitefly (Bemisia tabaci); experiment: Insecticidal test for sweet potato whitefly, foliar spray on cotton; conditions: 13 or 14 days, Corrected % Control
[4] = tested on: fruit fly (Drosophila melanogaster); experiment: Insecticidal test for fruit fly, dietary; conditions: 25 μg/cm2, 4 h
[5] = tested on: cotton aphid (Aphis gossypii); experiment: Insecticidal test for cotton aphid, foliar spray on squash
[6] = tested on: green peach aphid (Myzus persicae); experiment: Insecticidal test for green peach aphid, foliar spray on cabbage seedlings; conditions: rundown assay, 3 days

## O=[N+]([O-])N=S1(=O)CCCC1
[1]
  YFM 26: % control at 26 ppm against yellow fever mosquito in submerge tests: G
[2]
  BAW SYM: % showing intoxicated symptoms at 10 μg/larva against beet armyworm in injection tests: F (Less than 50)
[3]
  SPW 200: % control at 200 ppm against sweet potato whitefly in foliar spray tests: G
[4]
  FF SYM: % showing intoxicated symptoms at 25 μg/cm2 against fruit fly in dietary tests: G
[5]; 0.049 ppm, rundown assay
  % Control at ppm, against cotton aphid: 0.049: C (70-79)
[5]; 0.195 ppm, rundown assay
  % Control at ppm, against cotton aphid: 0.195: B (80-89)
[5]; 0.78 ppm, rundown assay
  % Control at ppm, against cotton aphid: 0.78: B (80-89)
[5]; 3.12 ppm, rundown assay
  % Control at ppm, against cotton aphid: 3.12: A (90-100)
[5]; 12.5 ppm, rundown assay
  % Control at ppm, against cotton aphid: 12.5: A (90-100)
[5]; 50 ppm, foliar spray, 3 days, Corrected % Control (Abbott)
  CA 50: % control at 50 ppm against cotton aphid in foliar spray tests: A (90-100)
[5]; 50 ppm, rundown assay
  % Control at ppm, against cotton aphid: 50: A (90-100)
[5]; 200 ppm, foliar spray, 3 days, Corrected % Control (Abbott)
  CA 200: % control at 200 ppm against cotton aphid in foliar spray tests: A (90-100)
[6]; 0.049 ppm
  % Control at ppm, against green peach aphid: 0.049: F (Less than 50)
[6]; 0.195 ppm
  % Control at ppm, against green peach aphid: 0.195: F (Less than 50)
[6]; 0.78 ppm
  % Control at ppm, against green peach aphid: 0.78: E (50-59)
[6]; 3.12 ppm
  % Control at ppm, against green peach aphid: 3.12: D (60-69)
[6]; 12.5 ppm
  % Control at ppm, against green peach aphid: 12.5: D (60-69)
[6]; 50 ppm
  % Control at ppm, against green peach aphid: 50: D (60-69)
